Experimental data published in patent US6426231B1 (priority 1998, dated 2002).

Biological target: αHL-M113N (Staphylococcus aureus, UniProt P09616, G156S/I168L/K34A/M139N/N165Q/V150L)
Conditions: −40 mV, 1M NaCl, 10 mM Na phosphate, pH 7.5

heptakis-6-sulfato-β-cyclodextrin
g (conductance): 40 ± 1 pS
